# AlphaSeq binding of Ab-14 heavy chain variants to a spike HR2 peptide

Reference: Engelhart et al. 2022, doi:10.1038/s41597-022-01779-4. File: FLAb, binding data.

Target: peptide PDVDLGDISGINAS, taken from heptad repeat 2 (HR2) of SARS-CoV-2 spike.

The variants keep the light chain, the linker and the frameworks of Ab-14 (scFv order VH, the linker GGGGSGGGGSGGGGS, VL).
VH: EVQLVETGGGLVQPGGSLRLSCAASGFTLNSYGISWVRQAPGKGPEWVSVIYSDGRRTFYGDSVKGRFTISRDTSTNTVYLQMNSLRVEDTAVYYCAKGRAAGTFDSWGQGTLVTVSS
VL: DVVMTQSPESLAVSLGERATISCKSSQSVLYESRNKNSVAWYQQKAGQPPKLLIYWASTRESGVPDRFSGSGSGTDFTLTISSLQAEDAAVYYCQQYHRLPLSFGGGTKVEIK

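Phage display of a naive human antibody library on the peptide gave the parent. Variants in AAYL49 differ from the parent at up to three CDR positions; double and triple changes were sampled at random. In AlphaSeq, yeast of one mating type display the scFv and yeast of the other type display the target. Mating (16 h, 30 °C) was followed by selection of diploids and sequencing of their barcodes. Each replicate has its own calibration line, from reference interactions of the BCL2 family. The assay was run in three technical replicates.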

The parent's heavy chain CDRs are GFTLNSYGIS, VIYSDGRRTFYGDSVK, GRAAGTFDS; each variant's own CDRs replace them letter for letter.
Scale: log10 of Kd in nM, estimated from mating counts; low values are strong binders.
An entry "ND" has no value in the source: the pair was not observed among the diploids in that replicate. This suggests poor binding but is not conclusive.

| # | CDR-H1 | CDR-H2 | CDR-H3 | log10 Kd, replicates | signal with controls |
|---|---|---|---|---|---|
| 1 | GFTLNSYWIS | VIPVDGRRTFYGDSVK | GRAAGTFDS | ND ND 5.13 | 3/9 (4.80) |
| 2 | GFTLNSYGIS | VIPSDGRRTFIGDSVK | GRAAGSFDS | ND ND ND | 0/9 |
| 3 | GFTFNSYGIS | VIYSDGERTYYGDSVK | GRAAGTFDS | 2.24 ND ND | 0/9 |
| 4 | GFTLNSYGIS | VITSDGRYTFYGDSVC | GRAAGTFDS | ND ND ND | 2/9 (3.65) |
| 5 | GFTLNSYGIS | VIYSDGRRTFKGDSVK | GRAAGTFDS | ND ND 3.73 | 0/9 |
| 6 | GFTQNSYGIS | VIYSDGRATFYGDGVK | GRAAGTFDS | ND ND ND | 0/9 |
| 7 | GFTLKSYKIS | VIYSDGRRTFYGDSVK | GRAAGFFDS | ND ND 4.94 | 2/9 (4.26) |
| 8 | LFTLNSYGIS | VIYSDHRRTFYGDSTK | GRAAGTFDS | ND 3.63 4.38 | 1/9 (3.90) |
| 9 | AFTLNSYGIS | VIYSDGRRTFYGDMVK | GRLAGTFDS | 1.56 1.57 2.08 | 1/9 (2.28) |
| 10 | GFTLNSYGIS | VICSDGRRTFYGDSVE | GKAAGTFDS | ND ND ND | 0/9 |
| 11 | FFTLNSYGIS | VIYSGGRRPFYGDSVK | GRAAGTFDS | ND ND ND | 1/9 (4.24) |
| 12 | GFTKNSYGQS | VIYSDGRRTFYGDSVK | GRAAGTFQS | ND 4.17 5.81 | 2/9 (3.88) |
| 13 | GFTLNSYNIS | VIYSDGRRTFQGDSVK | GRAAGTFES | ND ND ND | 2/9 (3.62) |
| 14 | GFTLNSYGIS | VIYSDGRRTFYGDSLK | GMAEGTFDS | 3.75 2.87 3.99 | 1/9 (3.86) |
| 15 | GFTLNSYGIM | VHYPDGRRTFYGDSVK | GRAAGTFDS | ND ND ND | 0/9 |
| 16 | GFTLNSYGIS | VIYSDGRGTFYGDSVK | GRVKGTFDS | ND ND ND | 0/9 |
| 17 | GFTLNSYGIH | VIYSDGRRTFYGSSVK | GRAAGTFRS | ND 3.69 5.75 | 3/9 (3.64) |
| 18 | GFTLNSYGIS | VIYSDGRRTFYGDYVG | GRAAGTQDS | ND ND 2.95 | 0/9 |
| 19 | GFTLNSYGIS | VIYKCGRRTFYGDSVK | GRIAGTFDS | 4.20 5.16 3.73 | 4/9 (4.12) |
| 20 | GFTLNSYGIS | VIYSDGRMTFYGDSVK | GRAAGNWDS | ND ND ND | 2/9 (4.58) |
| 21 | GFTLHSYGIS | NIYSDGRRTFYGDVVK | GRAAGTFDS | ND 3.32 ND | 1/9 (2.94) |
| 22 | GFTLNSYGIS | VIYSMGRRTFYGNSVK | GRAAGTFTS | ND ND ND | 0/9 |
| 23 | GFTLNNVGIS | VIYSDGRRTFYGDSVK | GRADGTFDS | 2.09 2.48 2.97 | 3/9 (3.48) |
| 24 | GFTLSSYGIS | VIYSDGRRTFYGDSVK | GRAAGTFDS | 0.76 0.80 0.78 | 2/9 (4.15) |
| 25 | GETLNSYGIS | VIYSDGRRTFYGDNVK | GRAAGTPDS | ND ND ND | 0/9 |
| 26 | GFTLNSYGIS | VIYSDGRRSFYGDSVK | GRAAFVFDS | 0.90 0.83 0.74 | 0/9 |
| 27 | GFTLNSYGNS | VIYSDGRRTFYGDSVD | GVAAGTFDS | ND ND ND | 0/9 |
| 28 | GFTLNSYYIS | VIYSDGRRTFYGDSVK | TRAAGTFDS | 4.52 ND 4.85 | 6/9 (4.54) |
| 29 | GFTTNSYGIS | SIYTDGRRTFYGDSVK | GRAAGTFDS | ND ND ND | 0/9 |
| 30 | GFTLDSYGVS | VIYSDGRRTFYGDKVK | GRAAGTFDS | 0.20 0.42 0.25 | 4/9 (4.67) |
| 31 | GFTLASYGIK | VIYFDGRRTFYGDSVK | GRAAGTFDS | 5.47 ND ND | 2/9 (3.28) |
| 32 | GFTHNSYDIS | VIYSDGRYTFYGDSVK | GRAAGTFDS | ND ND ND | 1/9 (2.78) |
| 33 | GVTLNSYGIS | VIYSDGRGTFYGQSVK | GRAAGTFDS | ND ND ND | 0/9 |
| 34 | GFELISDGIS | VIYSDGRRTFYGDSVK | GRAAGTFDS | ND 3.36 ND | 0/9 |
| 35 | GVTLISYGIS | VIYSDGRRTFYGDSVK | GRAAGTFDS | ND ND ND | 1/9 (3.62) |
| 36 | GFTLKIYGIS | VIYSDGRRTFYGDVVK | GRAAGTFDS | ND ND ND | 1/9 (3.65) |

Background: pairings of library AAYL49 with three empty control strains gave a value in 15% of cases (median 4.06, 5th percentile 2.83). Values in that range, when seen in few replicates, are hard to tell from nonspecific mating. Also given: how often the same scFv was detected with the empty control strains, with their mean in brackets.
In this assay the parent's reference entry averaged 0.65; its copy inside this library read 4.11 (one replicate of three).